The values below are quoted from earlier work in patent US8877908B2, “Stimulus-responsive apta chelamers” (The Administrators of the Tulane Educational Fund, priority 2008, dated 2014).

Sequences of proteins named here, by UniProt entry; tags and fusion partners are left off. Residues count along the entry.
UniProt P00760, 24-246 limits assumed: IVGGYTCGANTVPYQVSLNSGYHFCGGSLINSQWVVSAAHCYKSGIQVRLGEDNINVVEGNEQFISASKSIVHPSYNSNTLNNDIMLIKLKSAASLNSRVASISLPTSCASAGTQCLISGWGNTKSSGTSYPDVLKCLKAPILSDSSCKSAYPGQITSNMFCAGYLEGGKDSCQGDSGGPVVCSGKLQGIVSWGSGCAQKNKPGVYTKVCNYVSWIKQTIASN

This series concerns the target trypsin (Bos taurus, UniProt P00760). To be noted: read-out: IC50 for trypsin inhibition; Melkko et al. 2007; cited from earlier work.

What is called IC50 is the point on the concentration scale where inhibition reaches its midpoint. As to `N=C(N)c1ccc(CNC(=O)CCCCNC(=S)Nc2cccc(I)c2)cc1`, the IC50 is 800 nM.
